CycPeptMPDB entries from one study

Source: CycPeptMPDB (Li et al. 2023), which took these values from Kelly et al. 2021, doi:10.1021/jacs.0c06115.

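The data file gives no further conditions (lipid, pH, time, direction or concentration), and values from different papers need not be comparable. The list need not hold all peptides of the study. Entries at the database's floor value (log10 P of -10) are not listed.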

PAMPA measures passive passage through an artificial lipid membrane.
Values are log10 P with P in cm/s, so -5 is more permeable than -7.

compound	PAMPA (log10 cm/s)
CC(=O)N1CCC[C@@H]1C(=O)N(C)[C@H](CC(C)C)C(=O)N[C@@H]1C(=O)N[C@H](CC(C)C)C(=O)N(C)[C@H](CC(C)C)C(=O)N[C@H](CC(C)C)C(=O)N[C@@H](C)C(=O)N[C@@H](CC(C)C)C(=O)N2CCC[C@@H]2C(=O)O[C@@H]1C	-5.92
CC(=O)N1CCC[C@H]1C(=O)N(C)[C@H](CC(C)C)C(=O)N[C@@H]1C(=O)N[C@@H](CC(C)C)C(=O)N[C@H](CC(C)C)C(=O)N[C@H](CC(C)C)C(=O)N[C@H](C)C(=O)N[C@@H](CC(C)C)C(=O)N2CCC[C@H]2C(=O)O[C@@H]1C	-6.68
CC(=O)N1CCC[C@H]1C(=O)N(C)[C@@H](CC(C)C)C(=O)N[C@@H]1C(=O)N(C)[C@H](CC(C)C)C(=O)N(C)[C@@H](CC(C)C)C(=O)N(C)[C@@H](CC(C)C)C(=O)N(C)[C@@H](C)C(=O)N[C@@H](CC(C)C)C(=O)N2CCC[C@H]2C(=O)O[C@@H]1C	-5.29
CC(=O)N1CCC[C@H]1C(=O)N(C)[C@H](CC(C)C)C(=O)N[C@@H]1C(=O)N(C)[C@H](CC(C)C)C(=O)N(C)[C@@H](CC(C)C)C(=O)N[C@@H](CC(C)C)C(=O)N(C)[C@@H](C)C(=O)N[C@H](CC(C)C)C(=O)N2CCC[C@@H]2C(=O)O[C@@H]1C	-5.14
CC(=O)N1CCC[C@@H]1C(=O)N(C)[C@@H](CC(C)C)C(=O)N[C@@H]1C(=O)N[C@H](CC(C)C)C(=O)N[C@@H](CC(C)C)C(=O)N[C@@H](CC(C)C)C(=O)N[C@@H](C)C(=O)N[C@@H](CC(C)C)C(=O)N2CCC[C@@H]2C(=O)O[C@@H]1C	-6.97
CC(=O)N1CCC[C@@H]1C(=O)N(C)[C@@H](CC(C)C)C(=O)N[C@@H]1C(=O)N(C)[C@@H](CC(C)C)C(=O)N(C)[C@H](CC(C)C)C(=O)N(C)[C@H](CC(C)C)C(=O)N(C)[C@H](C)C(=O)N[C@H](CC(C)C)C(=O)N2CCC[C@H]2C(=O)O[C@@H]1C	-5.31
CC(=O)N1CCC[C@H]1C(=O)N(C)[C@@H](CC(C)C)C(=O)N[C@@H]1C(=O)N[C@@H](CC(C)C)C(=O)N[C@H](CC(C)C)C(=O)N(C)[C@@H](CC(C)C)C(=O)N(C)[C@H](C)C(=O)N[C@@H](CC(C)C)C(=O)N2CCC[C@H]2C(=O)O[C@@H]1C	-5.74
CC(=O)N1CCC[C@H]1C(=O)N(C)[C@H](CC(C)C)C(=O)N[C@@H]1C(=O)N[C@@H](CC(C)C)C(=O)N[C@H](CC(C)C)C(=O)N(C)[C@H](CC(C)C)C(=O)N(C)[C@@H](C)C(=O)N[C@@H](CC(C)C)C(=O)N2CCC[C@@H]2C(=O)O[C@@H]1C	-5.32
CC(=O)N[C@@H]1C(=O)N2CCC[C@H]2C(=O)N(C)[C@H](CC(C)C)C(=O)N(C)[C@@H](CC(C)C)C(=O)N(C)[C@@H](CC(C)C)C(=O)N(C)[C@H](CC(C)C)C(=O)N(C)[C@@H](C)C(=O)N[C@@H](CC(C)C)C(=O)N2CCC[C@@H]2C(=O)O[C@@H]1C	-5.18
CC(=O)N1CCC[C@@H]1C(=O)N(C)[C@@H](CC(C)C)C(=O)N[C@@H]1C(=O)N(C)[C@H](CC(C)C)C(=O)N(C)[C@H](CC(C)C)C(=O)N(C)[C@@H](CC(C)C)C(=O)N(C)[C@H](C)C(=O)N[C@H](CC(C)C)C(=O)N2CCC[C@H]2C(=O)O[C@@H]1C	-5.20
CC(=O)N1CCC[C@@H]1C(=O)N(C)[C@@H](CC(C)C)C(=O)N[C@@H]1C(=O)N(C)[C@@H](CC(C)C)C(=O)N[C@H](CC(C)C)C(=O)N[C@@H](CC(C)C)C(=O)N[C@@H](C)C(=O)N[C@H](CC(C)C)C(=O)N2CCC[C@@H]2C(=O)O[C@@H]1C	-6.09
CC(=O)N1CCC[C@H]1C(=O)N(C)[C@@H](CC(C)C)C(=O)N[C@@H]1C(=O)N(C)[C@H](CC(C)C)C(=O)N[C@H](CC(C)C)C(=O)N(C)[C@@H](CC(C)C)C(=O)N(C)[C@H](C)C(=O)N[C@@H](CC(C)C)C(=O)N2CCC[C@H]2C(=O)O[C@@H]1C	-5.36
CC(=O)N1CCC[C@@H]1C(=O)N(C)[C@@H](CC(C)C)C(=O)N[C@@H]1C(=O)N[C@@H](CC(C)C)C(=O)N[C@@H](CC(C)C)C(=O)N[C@H](CC(C)C)C(=O)N(C)[C@@H](C)C(=O)N[C@@H](CC(C)C)C(=O)N2CCC[C@H]2C(=O)O[C@@H]1C	-5.74
CC(=O)N1CCC[C@@H]1C(=O)N(C)[C@@H](CC(C)C)C(=O)N[C@@H]1C(=O)N(C)[C@H](CC(C)C)C(=O)N(C)[C@@H](CC(C)C)C(=O)N(C)[C@H](CC(C)C)C(=O)N(C)[C@H](C)C(=O)N[C@@H](CC(C)C)C(=O)N2CCC[C@H]2C(=O)O[C@@H]1C	-5.44
CC(=O)N1CCC[C@H]1C(=O)N(C)[C@H](CC(C)C)C(=O)N[C@@H]1C(=O)N(C)[C@@H](CC(C)C)C(=O)N[C@H](CC(C)C)C(=O)N[C@H](CC(C)C)C(=O)N(C)[C@H](C)C(=O)N[C@H](CC(C)C)C(=O)N2CCC[C@H]2C(=O)O[C@@H]1C	-5.86

Again, the 2 entries with the lowest PAMPA:

| compound | PAMPA (log10 cm/s) |
|---|---|
| CC(=O)N1CCC[C@@H]1C(=O)N(C)[C@@H](CC(C)C)C(=O)N[C@@H]1C(=O)N[C@H](CC(C)C)C(=O)N[C@@H](CC(C)C)C(=O)N[C@@H](CC(C)C)C(=O)N[C@@H](C)C(=O)N[C@@H](CC(C)C)C(=O)N2CCC[C@@H]2C(=O)O[C@@H]1C | -6.97 |
| CC(=O)N1CCC[C@H]1C(=O)N(C)[C@H](CC(C)C)C(=O)N[C@@H]1C(=O)N[C@@H](CC(C)C)C(=O)N[C@H](CC(C)C)C(=O)N[C@H](CC(C)C)C(=O)N[C@H](C)C(=O)N[C@@H](CC(C)C)C(=O)N2CCC[C@H]2C(=O)O[C@@H]1C | -6.68 |